According to PubChem BioAssay (NCI):
“And” between values parts separate entries of the source, which are not always exact repeats. Equal values may be shown once. The list shows a part of the results, in another mix than the full data. Some tests of the compounds listed are not included; inactive here does not mean inactive elsewhere.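 Compound tested at a single concentration for 48 hours in 96-well plates; a percent growth value below 10 was scored as active.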 The source made the active and inactive calls.

system: RPMI-8226 leukemia; experiment: NCI-60 one-dose screen, 48 h (100 = growth as untreated, 0 = no growth, -100 = all killed); settings: 10 µM

Row | Structure (SMILES) | growth
1 | ClCCN(CCCl)Cc1cc(Cl)cc(Cl)c1 | inactive: 70.6%
2 | N#CC(C#N)=Cc1ccccc1Cl | inactive: 103%
3 | ClCCN(CCCl)Cc1ccsc1Br | inactive: 82%
4 | N#CC(C#N)=Cc1cccc(Br)c1 | inactive: 97%
5 | Fc1cccc(CN(CCCl)CCCl)c1 | inactive: 99.1%
6 | Cc1cc2nc(CN(CCCl)CCCl)[nH]c2cc1C | inactive: 93.2%
7 | ClCCN(CCCl)C1c2ccccc2-c2ccccc21 | inactive: 85%
8 | CC(C)(C)N(CCCl)CCCl | inactive: 91.2%
9 | N#CC(C#N)=Cc1ccc(Br)cc1 | inactive: 102% and inactive: 103%
10 | CCOc1ccc([N+](=O)[O-])cc1CN(CCCl)CCCl | inactive: 98.3%
11 | CN(C)CCOC(=O)C(O)(c1ccccc1)c1ccccc1 | inactive: 118%
12 | ClCCN(CCCl)Cc1ccc(Cl)c(Cl)c1 | inactive: 91.2%
13 | CC(=O)CI | inactive: 112%
14 | CCCN(CCCl)CCCl | inactive: 102%
15 | BrCCN(CCBr)Cc1ccccc1 | inactive: 97.4%
16 | CCNCCCl | inactive: 104%
17 | O=C(OCCN1CCCC1)C(O)(c1ccccc1)c1ccccc1 | inactive: 95.7%
18 | COc1ccc(N=C=S)cc1CN(CCCl)CCCl | inactive: 72.7%
19 | ClCCN(CCCl)C1CCCCC1 | inactive: 102%
20 | CC[N+](C)(C)Cc1cccc(Cc2ccccc2)c1OC(=O)N(C)C | inactive: 103%
21 | COc1ccc([N+](=O)[O-])cc1CN(CCCl)CCCl | inactive: 100%
22 | ClCCCCCC(CCl)NCCCl (stereo not given) | inactive: 103%
23 | COCc1c(CN(CCCl)CCCl)cnc(C)c1O | inactive: 108%
24 | CN(CCBr)CCBr | inactive: 95.5%

system: OVCAR-8 ovarian; experiment: as above; settings: 10 µM

Row | Structure (SMILES) | growth
25 | ClCCN(CCCl)Cc1cc(Cl)cc(Cl)c1 | inactive: 70.1%
26 | N#CC(C#N)=Cc1ccccc1Cl | inactive: 110%
27 | ClCCN(CCCl)Cc1ccsc1Br | inactive: 77.6%
28 | N#CC(C#N)=Cc1cccc(Br)c1 | inactive: 104%
29 | Fc1cccc(CN(CCCl)CCCl)c1 | inactive: 96.3%
30 | Cc1cc2nc(CN(CCCl)CCCl)[nH]c2cc1C | inactive: 81.7%
31 | ClCCN(CCCl)C1c2ccccc2-c2ccccc21 | inactive: 86.3%
32 | CC(C)(C)N(CCCl)CCCl | inactive: 100%
33 | N#CC(C#N)=Cc1ccc(Br)cc1 | inactive: 115% and inactive: 107%
34 | CCOc1ccc([N+](=O)[O-])cc1CN(CCCl)CCCl | inactive: 101%
35 | CN(C)CCOC(=O)C(O)(c1ccccc1)c1ccccc1 | inactive: 107%
36 | ClCCN(CCCl)Cc1ccc(Cl)c(Cl)c1 | inactive: 99.6%
37 | CC(=O)CI | inactive: 102%
38 | CCCN(CCCl)CCCl | inactive: 98.3%
39 | BrCCN(CCBr)Cc1ccccc1 | inactive: 108%
40 | CCNCCCl | inactive: 110%
41 | COc1ccc(N=C=S)cc1CN(CCCl)CCCl | inactive: 58.7%
42 | ClCCN(CCCl)C1CCCCC1 | inactive: 99.7%
43 | CC[N+](C)(C)Cc1cccc(Cc2ccccc2)c1OC(=O)N(C)C | inactive: 111%
44 | COc1ccc([N+](=O)[O-])cc1CN(CCCl)CCCl | inactive: 106%
45 | ClCCCCCC(CCl)NCCCl (stereo not given) | inactive: 83%
46 | COCc1c(CN(CCCl)CCCl)cnc(C)c1O | inactive: 101%
47 | CN(CCBr)CCBr | inactive: 96.4%

system: OVCAR-5 ovarian; experiment: as above; settings: 10 µM

Row | Structure (SMILES) | growth
48 | ClCCN(CCCl)Cc1cc(Cl)cc(Cl)c1 | inactive: 105%
49 | N#CC(C#N)=Cc1ccccc1Cl | inactive: 115%
50 | ClCCN(CCCl)Cc1ccsc1Br | inactive: 97.6%
51 | N#CC(C#N)=Cc1cccc(Br)c1 | inactive: 104%
52 | Fc1cccc(CN(CCCl)CCCl)c1 | inactive: 112%
53 | Cc1cc2nc(CN(CCCl)CCCl)[nH]c2cc1C | inactive: 105%
54 | ClCCN(CCCl)C1c2ccccc2-c2ccccc21 | inactive: 98.4%
55 | CC(C)(C)N(CCCl)CCCl | inactive: 89.8%
56 | N#CC(C#N)=Cc1ccc(Br)cc1 | inactive: 109% and inactive: 115%
57 | CCOc1ccc([N+](=O)[O-])cc1CN(CCCl)CCCl | inactive: 98.8%
58 | CN(C)CCOC(=O)C(O)(c1ccccc1)c1ccccc1 | inactive: 102%
59 | ClCCN(CCCl)Cc1ccc(Cl)c(Cl)c1 | inactive: 97.7%
60 | CCCN(CCCl)CCCl | inactive: 99%
61 | BrCCN(CCBr)Cc1ccccc1 | inactive: 86%
62 | CCNCCCl | inactive: 92%
63 | O=C(OCCN1CCCC1)C(O)(c1ccccc1)c1ccccc1 | inactive: 102%
64 | COc1ccc(N=C=S)cc1CN(CCCl)CCCl | inactive: 115%
65 | ClCCN(CCCl)C1CCCCC1 | inactive: 98.9%
66 | CC[N+](C)(C)Cc1cccc(Cc2ccccc2)c1OC(=O)N(C)C | inactive: 103%
67 | COc1ccc([N+](=O)[O-])cc1CN(CCCl)CCCl | inactive: 112%
68 | ClCCCCCC(CCl)NCCCl (stereo not given) | inactive: 123%
69 | COCc1c(CN(CCCl)CCCl)cnc(C)c1O | inactive: 113%
70 | CN(CCBr)CCBr | inactive: 106%
